This is an account of results in patent publication US20220144817A1 (Karuna Therapeutics, Inc., priority 2019, published 2022).

Amino acid sequences for entries named in this document (tags omitted). A change or cut given only in a name is not applied to a line headed by its entry.
UniProt P11229: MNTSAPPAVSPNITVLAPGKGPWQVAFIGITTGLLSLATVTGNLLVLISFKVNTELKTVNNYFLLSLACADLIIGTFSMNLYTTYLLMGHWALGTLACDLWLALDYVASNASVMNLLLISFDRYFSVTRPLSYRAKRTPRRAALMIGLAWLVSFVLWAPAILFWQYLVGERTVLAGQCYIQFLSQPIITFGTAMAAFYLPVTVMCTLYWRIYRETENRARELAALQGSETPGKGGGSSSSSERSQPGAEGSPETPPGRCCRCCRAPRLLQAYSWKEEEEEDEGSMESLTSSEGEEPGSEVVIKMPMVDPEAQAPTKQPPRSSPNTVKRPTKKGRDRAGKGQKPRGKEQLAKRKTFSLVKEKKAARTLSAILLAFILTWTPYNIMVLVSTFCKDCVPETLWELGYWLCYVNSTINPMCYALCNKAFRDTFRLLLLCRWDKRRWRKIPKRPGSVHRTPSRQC
UniProt P08172, whole entry: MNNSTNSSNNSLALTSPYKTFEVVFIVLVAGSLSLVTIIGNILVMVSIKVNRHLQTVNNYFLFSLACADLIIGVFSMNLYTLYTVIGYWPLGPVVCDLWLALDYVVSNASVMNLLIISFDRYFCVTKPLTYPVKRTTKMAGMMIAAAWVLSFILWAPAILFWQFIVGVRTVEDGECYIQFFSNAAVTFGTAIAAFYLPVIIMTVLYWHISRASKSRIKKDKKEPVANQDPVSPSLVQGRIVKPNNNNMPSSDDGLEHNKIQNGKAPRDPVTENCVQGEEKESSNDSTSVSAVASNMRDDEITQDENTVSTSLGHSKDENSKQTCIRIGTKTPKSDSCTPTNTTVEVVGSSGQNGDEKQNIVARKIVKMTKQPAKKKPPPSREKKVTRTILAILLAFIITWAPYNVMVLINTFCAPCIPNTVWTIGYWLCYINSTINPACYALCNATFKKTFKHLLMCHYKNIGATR

Assay [1] addresses muscarinic acetylcholine receptor human M1 (hM1) (Homo sapiens, UniProt P11229). Conditions: pERK; rank hM4>hM1. An excerpt:
The Flp-In™ cell lines are designed for rapid generation of stable cell lines that express a protein of interest from a Flp-In™ expression vector.
Extracellular signal-related kinase (ERK1/2 or p42/44) is a kinase in the mitogen-activated protein kinase (MAPK) family. Phosphorylation of ERK (pERK) can be used as a common end point measurement for the activation of many classes of G protein coupled receptors (GPCR) and beta-arrestin linked signaling.
For the pERK assay, cells were serum starved for 5 to 6 hours. Curves were normalized to the maximum response from the fetal bovine serum (FBS) medium corresponding to a 5-minute stimulation. A 5-minute incubation with the agonists was selected for the dose response pERK assays (n=2).
Nonlinear regression curves were calculated per the three parameters method with no constraints.

The target of assay [2] is T1, muscarinic acetylcholine receptor human M2 (hM2) (Homo sapiens, UniProt P08172).
T1 construct: expressed in transfected cells
The assay can be described thus: pERK dose response in CHO cells stably expressing hM2. In kind it is cell-based. To be noted: CHO cells expressing hM2, 5-minute incubation, normalized to maximum FBS response, n=3; read-out: pEC50 (pERK), M2 (converted).

On to `[2H]C([2H])([2H])N1CCC=C(c2nsnc2OC([2H])([2H])C([2H])([2H])C([2H])([2H])C([2H])([2H])C([2H])([2H])C([2H])([2H])[2H])C1` [Xanomeline-d16, 3-((hexyl-1,1,2,2,3,3,4,4,5,5,6,6,6-d13)oxy)-4-(1-(methyl-d3)-1,2,5,6-tetrahydropyridin-3-yl)-1,2,5-thiadiazole], for which the “agonist capacity at hM1” value in assay [1] is “efficacious partial agonist”. The EC50 in assay [2] was 735 nM.

For `[2H]C([2H])([2H])C([2H])([2H])C([2H])([2H])C([2H])([2H])C([2H])([2H])C([2H])([2H])Oc1nsnc1C1=CCCN(C)C1` [Xanomeline-d13, 3-((hexyl-1,1,2,2,3,3,4,4,5,5,6,6,6-d13)oxy)-4-(1-methyl-1,2,5,6-tetrahydropyridin-3-yl)-1,2,5-thiadiazole], the “agonist capacity at hM1” value in assay [1] is listed as “efficacious partial agonist”. Also, the EC50 in assay [2] is 665 nM.
